The source of these data is ChEMBL document CHEMBL5365420, “Kinetics, Thermodynamics, and Structural Effects of Quinoline-2-Carboxylates, Zinc-Binding Inhibitors of New Delhi Metallo-β-lactamase-1 Re-sensitizing Multidrug-Resistant Bacteria for Carbapenems” (J Med Chem, 2023).

Amino acid sequences for entries named in this document (tags omitted). A change or cut given only in a name is not applied to a line headed by its entry.
UniProt C7C422: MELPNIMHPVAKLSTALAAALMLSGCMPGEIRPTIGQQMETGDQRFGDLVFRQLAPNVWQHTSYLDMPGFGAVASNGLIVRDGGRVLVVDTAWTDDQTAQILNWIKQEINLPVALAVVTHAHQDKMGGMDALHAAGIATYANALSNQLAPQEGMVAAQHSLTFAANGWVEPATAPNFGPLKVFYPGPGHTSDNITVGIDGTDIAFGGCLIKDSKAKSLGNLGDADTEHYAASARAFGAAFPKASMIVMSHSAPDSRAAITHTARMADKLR

Structures are written as SMILES.

The experiment concerns the target Metallo-beta-lactamase type 2 (Bacteria, UniProt C7C422).

In turn, `Oc1c(Cl)cc(Cl)c2cccnc12` [CHLOROXINE] had an IC50 of 4.9 µM. In other words, the single-digit micromolar range.

Usually IC50 stands for the concentration needed to halve the response being measured. Lower therefore signals higher potency.
